Values of other authors as cited in US20160271139A1, “METHOD FOR NON-TOXIC TREATMENT FOR DRUG WITHDRAWAL” (DEMERX, INC., priority 2013, published 2016).

Conditions: higher doses; cited from earlier work

ibogaine
Hallucinations: caused hallucinations
